The text below walks through data of US7060808B1, “Humanized anti-EGF receptor monoclonal antibody” (ImClone Systems Incorporated, priority 1995, dated 2006).

In one assay the test system is Molt-4 and SK-MEL-28. Put plainly: C225-DOX inhibition of proliferation, EGFR non-expressing cell lines. It counts as cell-based. On the procedure: (§1) EGF receptor expression was verified by FACS analysis using C225 and C225-DOX conjugate. Assays were conducted over a 72 h incubation period using ^3[H]-thymidine and WST-1 as a read out. […] Inhibition of cell proliferation by C225DOX was also seen in EGFRc nonexpressing cell lines at higher doses.

Assay [1] has as its system A431, KB and MDA-468 cells. Kind of assay: C225-DOX inhibition of proliferation, EGFR expressing cell lines (3H-thymidine, WST-1). It counts as cell-based. On the procedure:
as §1
For orientation: Tetrazolium assays rely on reduction of a dye to a coloured formazan, in cell work by metabolically active cells.

For assay [2], the system named is EGFR-expressing tumor xenografts. Conditions: mouse; cited from earlier work.
Assay [3] relates to cultured EGFR-expressing tumor lines. To be noted: cited from earlier work.

In the case of C225-DOX, the “inhibition in EGFRc-negative cell lines lower than in EGFRc-positive cell lines” value with Molt-4 and SK-MEL-28 was 5–15 fold. In addition, the “inhibition of cell proliferation compared to no treatment or hIgG1 controls” value in assay [1] (72 h incubation) is given as “high inhibition of cell proliferation”. Also, the “higher inhibition versus equimolar doxorubicin alone or mixtures of C225 and doxorubicin” value in assay [1] (equimolar concentrations) is 4–5 fold.

For “225: murine monoclonal antibody that binds to the EGF receptor; hybridoma ATCC HB 11935 [compound 225]”, the “growth of these tumors in vivo as xenografts” value in assay [2] is on record as “able to inhibit the growth”. In addition, in assay [3], the “growth of cultured EGFR-expressing tumor lines” value is recorded as “able to inhibit the growth”.
